GFP response vs DMSO data for 23 molecules are collected here from PubChem BioAssay AID2066 (NMMLSC, 2009).

Structures are written as SMILES. This is a selection; strong and weak results do not stand in their true shares. Some of these compounds have results that are not shown, active ones among them. Calls of active or inactive are those of the source.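 The calls were made as follows: active = GFP response relative to DMSO above a set limit, near screen average plus 3 SD (cut at about 150% in these data); inconclusive = fewer than 70 cells counted for the yeast strain; inactive = the rest.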

This assay in a line: yeast AGP1-GFP level changes, GLN3 branch – cell-based, multiplex flow cytometry, S. cerevisiae, MLPCN library, primary screen (AID 2066).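 Also: median GFP channel fluorescence of the gated AGP1 strain per well.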 As to conditions: 3 h, at 10 µM, stronger effect = higher value, GFP as percent of DMSO wells. For orientation: Flow cytometry measures light scatter and fluorescence of single cells or particles in a stream.
Turning to `O=C(NCC1(N2CCCCC2)CCCCC1)c1cc(F)c(F)cc1Cl`, the GFP response vs DMSO was inactive: 96.6%.
Take `C=CCN1CCN(CCOC(=O)C(O)(c2ccccc2)c2ccccc2)CC1`: the GFP response vs DMSO was inactive: 99%.
The same measure for `COc1ccc(C(=O)NCC2(N(C)C)CCCCC2)cc1`: inactive: 96.2%; for `O=C(NCC1(N2CCCCC2)CCCCC1)c1cccc(Br)c1`: inactive: 103%; for `CCN1CCCC(OC(=O)C2(O)c3ccccc3C=Cc3ccccc32)C1` (stereo not drawn): inactive: 92.4%.
Regarding `CN(C)C1CCCC1OC(=O)C(O)(c1ccccc1)c1ccccc1` (stereo not drawn), the GFP response vs DMSO is inactive: 113%.
Regarding `CN(C)c1ccc(C(=O)NCC2(N(C)C)CCCCC2)cc1`, the GFP response vs DMSO is inactive: 102%.
With `Cc1ccccc1C(=O)NCC1(N2CCCCC2)CCCCC1`, the GFP response vs DMSO is inactive: 101%.
For the molecule `COc1cc(SC)ccc1C(=O)NCC1(N(C)C)CCCCC1`, the GFP response vs DMSO is inactive: 74.5%.
Turning to `CCN(CC)CC(C)C(C)OC(=O)C(O)(c1ccccc1)c1ccccc1` (stereo not drawn), the GFP response vs DMSO was inactive: 97.4%.
Take `CC(C)N1C(=O)CC2(CCN(CCOC(=O)C(O)(c3ccccc3)c3ccccc3)CC2)C1=O`: the GFP response vs DMSO is inactive: 103%.
With `Cc1ccc(C(=O)NCC2(N3CCCCC3)CCCCC2)cc1`, the GFP response vs DMSO was inactive: 103%.
Consider `O=C(NCC1(N2CCCCC2)CCCCC1)c1cc([N+](=O)[O-])ccc1Cl`, for which the GFP response vs DMSO is inactive: 96.6%.
Turning to `CN1[C@@H]2CC[C@H]1CC(OC(=O)C(O)(c1ccccc1)c1ccccc1)C2` (stereo partly drawn), the GFP response vs DMSO is inactive: 96.2%.
As to `COc1ccc(Br)c(C(=O)NCC2(N3CCCCC3)CCCCC2)c1`, the GFP response vs DMSO is inactive: 104%.
On to `CC(C)Oc1ccc(C(=O)NCC2(N(C)C)CCCCC2)cc1`, for which the GFP response vs DMSO was inactive: 96.2%.
As to `CN(C)c1cccc(C(=O)NCC2(N(C)C)CCCCC2)c1`, the GFP response vs DMSO is inactive: 107%.
The same measure for `O=C(OC1CN2CCC1CC2)C(CO)(c1ccccc1)c1ccccc1` (stereo not drawn): inactive: 112%; for `COc1ccc(Cl)cc1C(=O)NCC1(N(C)C)CCCCC1`: inactive: 105%; for `COc1cccc(C(=O)NCC2(N3CCCCC3)CCCCC2)c1`: inactive: 102%.
Take `O=C(NCC1(N2CCCCC2)CCCCC1)c1cccc(Cl)c1`: the GFP response vs DMSO was inactive: 99.2%.
With `CN(C)C1(CNC(=O)c2ccc(Br)cc2)CCCCC1`, the GFP response vs DMSO was inactive: 99.6%.
The same measure for `COc1cc(C(=O)NCC2(N(C)C)CCCCC2)c([N+](=O)[O-])cc1OC`: inactive: 95%.
